In PubChem BioAssay AID624304 (Sanford-Burnham Center for Chemical Genomics, 2012):
This is a selection; strong and weak results do not stand in their true shares. Activity calls are given as the source filed them.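 The calls were made as follows: active = interference check ratio from 0.5 to 1.5 plus GFP to RFP signal ratio inhibition reaching or exceeding a fixed threshold (cut at about 30% in these data, passing the limit was not always enough); inactive = the rest.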

assay: gst-4 reporter inhibition in live C. elegans – whole organism, uHTS, GFP/RFP fluorescence ratio, strain VP596, SKN-1 inhibitor project, primary screen (AID 624304); settings: C. elegans VP596 Pgst-4::GFP/RFP ratio, acrylamide-induced, 24 h; at 21.8 µM; hits give high values

SMILES | inhibition
CCOC(=O)Nc1ccc([As](=O)(O)O)c(O)c1 | inactive: -11.1%
O=C(O)C(O)c1ccc(N(CCCl)CCCl)cc1 (stereo unspecified) | inactive: 5.05%
CCCCOc1ccc(C(=O)NCC2(N3CCCCC3)CCCCC2)cc1OC | inactive: 10.9%
Cc1cc(SC(NC(=O)c2ccccc2)C(Cl)(Cl)Cl)nc(C(C)C)n1 (stereo unspecified) | inactive: -4.1%
COP(=O)(OC)N1CC1c1ccccc1 (stereo unspecified) | inactive: 9.85%
COC(=O)C1(C)COP(=O)(N2CCCCCC2)OC1 (stereo unspecified) | inactive: -23.7%
CC(C)c1ccc(OP(=O)(Nc2ccccn2)Oc2ccccc2F)cc1 (stereo unspecified) | inactive: -18.7%
ClCCSc1nnc(-c2cccnc2)o1 | inactive: -3.89%
CC(C)NC(=O)NP(=O)(Oc1ccccc1)Oc1ccccc1 | inactive: -10.7%
O=C(OC1CN2CCC1CC2)c1cccc2[nH]cnc12 (stereo unspecified) | inactive: -2.03%
CCN(CC)C(=S)SC(NC=O)C(Cl)(Cl)Cl (stereo unspecified) | inactive: 15.9%
O=[N+]([O-])c1cc([N+](=O)[O-])c(-c2ccn[nH]2)s1 | inactive: -7.96%
O=[As](O)(c1ccc(O)cc1)c1ccccc1O | inactive: 10.7%
C[As](=O)(O)c1cccc(C(=O)O)c1 | inactive: 1.79%
O=[N+]([O-])c1ccc(-c2cc([N+](=O)[O-])c(O)c([N+](=O)[O-])c2)cc1 | inactive: -9.44%
COc1cc(C(=O)NCC2(N3CCOCC3)CCCCC2)ccc1OCC(C)C | inactive: -7.46%
Cc1ccc2nc3c(c(C)c2c1)CC(C(Cl)Cl)S3 (stereo unspecified) | inactive: 12.2%
[N-]=[N+]=NC1CCCCC1NC(=O)c1cc([N+](=O)[O-])cc([N+](=O)[O-])c1 (stereo unspecified) | inactive: -0.0133%
Cc1ccc(OP(=O)(Nc2ccc([N+](=O)[O-])cn2)Oc2ccc(C)cc2)cc1 | inactive: -0.203%
COc1ccc(N/C(=N/P(=O)(N2CCOCC2)N2CCOCC2)N2CCOCC2)cc1 | inactive: -6.71%
O=[N+]([O-])c1cc(Oc2ccc([N+](=O)[O-])cc2C(F)(F)F)cc([N+](=O)[O-])c1 | inactive: 5.63%
O=C(OC1CN2CCC1CC2)C12CC3CC(CC(C3)C1)C2 (stereo unspecified) | inactive: 4.93%
Cc1cc(=O)[nH]c(N[N+](=O)[O-])n1 | inactive: -1.79%
Cc1c2c(nc3ccccc13)SC(C(Cl)Cl)C2 (stereo unspecified) | inactive: 18.5%
COc1ccc2nc(NP(=O)(c3ccccc3)c3ccccc3)sc2c1 | inactive: 2.67%
COc1cc(I)ccc1[As](=O)(O)O | inactive: -8.88%

SMILES | inhibition
O=P1(N(CCCl)CCCl)Nc2ccccc2N1 | inactive: 5.26%
O=P1(N(CCCl)CCCl)OCCCN1CCCl (stereo unspecified) | inactive: 18%
CCCOP(=S)(Nc1nc(N)cc(=O)[nH]1)OCCC | inactive: 4.49%
Nc1cccc2c([As](=O)(O)O)cccc12 | inactive: 41.1%
Cc1ccc(NCCc2c([N+](=O)[O-])cc([N+](=O)[O-])cc2[N+](=O)[O-])cc1 | inactive: 3.36%
COc1cc(C2NCCC3(OCCO3)C2(C)C)cc(OC)c1OC (stereo unspecified) | inactive: -5.73%
CCOP(=O)(Nc1cccc2ccccc12)OCC | inactive: 10.5%
O=[As](O)(O)c1cccnc1 | inactive: -1.4%
COc1cc(C(=O)NCC2(N3CCOCC3)CCCCC2)cc(Cl)c1OC(C)C | inactive: 6.86%
CS(=O)(=O)c1ccc(Cl)c(NC(=O)COC(=O)C(O)(c2ccccc2)c2ccccc2)c1 | inactive: -4.99%
O=C(OC1CN2CCC1CC2)c1ccc(Cl)cc1 (stereo unspecified) | inactive: -8.48%
Cc1cccc(OCC(=O)OC2CN3CCC2CC3)c1 (stereo unspecified) | inactive: -4.15%
O=[As](O)(c1cccc(O)c1)c1cccc(O)c1 | inactive: -0.858%
NC(=O)Nc1ccc([As](=O)(O)O)cc1 | inactive: 10.1%
O=[N+]([O-])c1ccc2c(c1)nnn2O | inactive: -20.7%
CN(C)C(=O)c1cc([N+](=O)[O-])cc2c1-c1c(cc([N+](=O)[O-])cc1[N+](=O)[O-])C2=O | inactive: -17.3%
CN(C(=O)Cc1ccc(Cl)c(Cl)c1)[C@H]1CC[C@@]2(CCCO2)C[C@@H]1N1CCCC1 | inactive: 5.23%
N#CCCN(C(=O)COC(=O)C(O)(c1ccccc1)c1ccccc1)c1ccc(F)cc1 | inactive: 5.52%
CCOP1(=S)c2c(C)nn(CCC#N)c2N=C(c2ccc(F)cc2)N1C (stereo unspecified) | inactive: -7.69%
CN(C(=O)Cc1ccccc1)[C@@H]1CC[C@]2(CCCO2)C[C@H]1N1CCCC1 | inactive: 5.23%
CS(=O)(=O)c1cc([N+](=O)[O-])c2no[n+]([O-])c2c1 | inactive: -1.82%
CCOP1(=S)c2c(C)nn(CCC#N)c2N=C(c2ccccc2F)N1C (stereo unspecified) | inactive: 15.2%
O=P(Nc1nccs1)(Oc1ccccc1)Oc1ccccc1 | inactive: 1.76%
O=P(Nc1nccs1)(c1ccccc1)c1nc2ccccc2s1 (stereo unspecified) | inactive: 20.2%
Nc1ccccc1[As](=O)(O)c1ccccc1 | inactive: -9.69%
O=C(O)COc1ccc([As](=O)(O)O)cc1[N+](=O)[O-] | inactive: 17.7%

SMILES | inhibition
O=P1(Nc2ncccn2)COc2ccccc2OC1 | inactive: -9.43%
Cc1ccc(S(=O)(=O)N(CCCN)CCCc2c(C)nc(N)[nH]c2=O)cc1 | inactive: -14.2%
O=[As](O)(c1cccs1)c1cccs1 | inactive: 13.8%
Cc1ccc(OCC(=O)OC2CN3CCC2CC3)cc1 (stereo unspecified) | inactive: 6.16%
O=P1(Nc2ccc(Br)cn2)COc2ccccc2OC1 | inactive: -17.9%
NS(=O)(=O)c1cccc(NC(=O)COC(=O)C(O)(c2ccccc2)c2ccccc2)c1 | inactive: -16.4%
Nc1cccc([As](=O)(O)c2ccccc2)c1 | inactive: -5.63%
Cc1nn(-c2ccccc2)c2c1P(=O)(N1CCOCC1)N(C)C(c1ccccc1)=N2 (stereo unspecified) | inactive: 6.7%
CC1CCC(C(C)C)C(OP(=O)(Nc2ccccn2)c2ccccc2)C1 (stereo unspecified) | inactive: 0.349%
Cc1ccc(C(=O)OC2CN3CCC2CC3)cc1 (stereo unspecified) | inactive: -8.37%
O=C(/C=C/c1ccccc1)OC1CN2CCC1CC2 (stereo unspecified) | inactive: -2.56%
CCCC1OP(=O)(Nc2ccccc2)OCC1CC (stereo unspecified) | inactive: 11.8%
CN(C)C1(CNC(=O)c2ccc(S(C)(=O)=O)cc2)CCCCC1 | inactive: -15.3%
COc1ccccc1CNC(=O)COC(=O)C(O)(c1ccccc1)c1ccccc1 | inactive: -14.6%
CC1(CBr)Cn2c(nc3ccccc3c2=O)S1 (stereo unspecified) | inactive: 13.7%
CC(C)/C=N\N=C(\N)N[N+](=O)[O-] | inactive: 2.17%
CN(C(=O)Cc1ccc(Cl)c(Cl)c1)[C@@H]1CCCC[C@H]1N1CCCC1 | inactive: 14.4%
CCOP(=O)(Nc1ccc(C)cn1)OCC | inactive: 3.15%
CN(CCCl)Cc1cc(Cl)c(NC2=NCCN2)c(Cl)c1 | inactive: 10.9%
O=P1(Nc2ccccn2)COc2ccccc2OC1 | inactive: -30.5%
CCC1=CC2Cc3nc4ccc(Cl)cc4c(N)c3C(C1)C2 (stereo unspecified) | inactive: -0.904%
O=P1(N(CCCl)CCCl)NCCC(C(F)(F)F)O1 (stereo unspecified) | inactive: 20.7%
Clc1n[nH]nc1-c1nn[nH][15n]1 | inactive: -12.1%
CC(C)(C)C(=O)NC(Sc1ncccn1)C(Cl)(Cl)Cl (stereo unspecified) | inactive: -2.23%
